Laboratory results taken from patent US4396607A, “Muramyl peptide derivatives and pharmaceutical compositions” (priority 1978, dated 1983).

Test system: Limulus amoebocyte lysate
Assay: Limulus test (endotoxic type activity)
Conditions: gel formation after 20 minutes at 37° C.
Method: For this purpose, 0.1 ml of the Limulus amoebocyte lysate preparation (marketed by the MALLINCKRODT Company, at St. LOUIS, U.S.A.) was mixed with an equal volume of the tested product at various concentrations in solution in apyrogenic distilled water. The vessels used were also made apyrogenic by dry heating in the oven, at 180° C., for 2 hours.
After incubating the mixture for 20 minutes at 37° C. in tubes, the formation of gel characteristics of the presence of endotoxin was estimated.

N-acetyl-muramyl-L-alanyl-D-isoglutaminyl-L-alanylglyceryl-mycolate [MDP--L--Ala--glyceryl--mycolate]
Limulus test result (concentration of the tested product): 100 µg/mL
